From patent publication EP4541796A1, “EXATECAN DERIVATIVES AND USE THEREOF” (Hangzhou Adcoris Biopharma Co., Ltd, priority 2022, dated 2024)

Test system: esophageal cancer cells OE33
Assay: In vitro inhibitory activity of ADC, CCK-8 cell growth assay
Type: cell-based, Human
Details: Inhibitory activity against OE33, 6 days incubation
Procedure: Human esophageal cancer cells OE33, lung cancer cells NCI-H1975 and breast cancer cells MDA-MB-231, which were used for activity testing, were cultured to the exponential growth phase in RPMI1640 (Cellmax), RPMI1640 (Cellmax) and DMEM (Cellmax) medium containing 10% fetal bovine serum (Cellmax), respectively. After trypsin digestion, the supernatant was centrifuged and discarded, and the cells were diluted with medium to 3×10^4cells/mL, 0.5×10^4cells/mL and 1.5×10^4cells/mL, respectively, and then added into 96-well cell culture plates at 100 µL per well, and returned to incubate overnight in a 37°C incubator with 5% CO2. […] After the addition, the plates were returned to the 37°C incubator with 5% CO2 to continue incubation for 6 days. After incubation, the cell culture plates were removed, and the culture medium was aspirated using a pipette. Then, 100µL of culture medium containing 10% CCK-8 was added to each well, and the plates were incubated at 37°C for 3 hours. After incubation, the plates were removed, kept in the dark, and placed in ELISA plate. Absorbance was measured at 630nm as the reference wavelength and 450nm as the test wavelength. The IC50 values (Tables 1 and 3) were calculated using the four-parameter logistic regression method in GraphPad, based on the absorbance values.

DS-8201a: antibody-drug conjugate formed with exatecan hydroxyethylamide derivative (DXd) as the toxin and trastuzumab (Herceptin); positive control drug [reference compound]
IC50: 50 to 100 nM
